Test [1] addresses T1, CaFADS (Corynebacterium ammoniagenes, UniProt Q59263, F128K).
T1 construct: gene ribF
Briefly: biochemical.

Amino acid sequences for entries named in this document (tags omitted).
UniProt Q59263, whole entry F128K: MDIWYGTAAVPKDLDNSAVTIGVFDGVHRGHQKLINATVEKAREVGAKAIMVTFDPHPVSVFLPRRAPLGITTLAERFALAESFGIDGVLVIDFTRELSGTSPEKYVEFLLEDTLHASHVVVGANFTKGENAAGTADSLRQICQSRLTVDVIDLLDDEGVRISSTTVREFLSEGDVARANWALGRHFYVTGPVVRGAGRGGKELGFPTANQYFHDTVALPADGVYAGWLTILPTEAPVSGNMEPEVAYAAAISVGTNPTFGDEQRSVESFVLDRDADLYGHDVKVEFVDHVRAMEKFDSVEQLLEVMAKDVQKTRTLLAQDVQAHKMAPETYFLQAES
UniProt Q59263, whole entry F128W: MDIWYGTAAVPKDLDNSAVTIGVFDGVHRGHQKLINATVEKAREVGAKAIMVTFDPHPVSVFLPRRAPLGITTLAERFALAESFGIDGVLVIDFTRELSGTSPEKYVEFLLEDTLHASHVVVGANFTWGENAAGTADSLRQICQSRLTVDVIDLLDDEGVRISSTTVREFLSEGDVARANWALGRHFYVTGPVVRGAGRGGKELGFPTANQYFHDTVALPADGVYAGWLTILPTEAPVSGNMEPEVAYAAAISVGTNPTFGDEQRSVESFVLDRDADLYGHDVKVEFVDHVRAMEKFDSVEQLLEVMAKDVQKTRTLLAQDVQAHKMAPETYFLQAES

In test [2] the target is T2, CaFADS (Corynebacterium ammoniagenes, UniProt Q59263, F128W).
T2 construct: gene ribF
Briefly: biochemical.

In the case of `Nc1ncnc2c1ncn2[C@@H]1O[C@H](COP(=O)(O)OP(=O)(O)OP(=O)(O)O)[C@@H](O)[C@H]1O` [ATP], the Kd (in general, the equilibrium constant for the complex coming apart) on CaFADS [1] was found to be 14 ± 1 µM; at CaFADS [2], 19 ± 1 µM.
